Data: publication PMC12136991 (ACS chemical neuroscience, 2025)

The chains behind the UniProt entries cited, without tags or fusion partners. Where a name states a change or a piece, a line headed by the entry shows the natural chain unless it says otherwise.
UniProt P41145: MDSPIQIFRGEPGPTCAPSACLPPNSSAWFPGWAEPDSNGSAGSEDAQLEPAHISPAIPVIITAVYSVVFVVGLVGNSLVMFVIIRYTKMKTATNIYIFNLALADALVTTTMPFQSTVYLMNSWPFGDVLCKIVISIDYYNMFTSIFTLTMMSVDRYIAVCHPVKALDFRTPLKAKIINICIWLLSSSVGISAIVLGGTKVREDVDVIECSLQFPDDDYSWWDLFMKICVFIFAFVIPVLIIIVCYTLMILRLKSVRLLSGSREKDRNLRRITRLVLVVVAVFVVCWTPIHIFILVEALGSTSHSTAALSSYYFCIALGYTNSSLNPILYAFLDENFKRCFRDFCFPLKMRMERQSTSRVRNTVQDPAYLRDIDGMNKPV

Target: human κ-opioid receptor (OPRK1) (Homo sapiens, UniProt P41145)
Assay: Forskolin-induced cAMP accumulation assay, KOR antagonist mode
Details: versus EC90 of U50488H; normalized to nor-BNI

With `Oc1ccc2c3c1O[C@H]1c4[nH]c5c(c4C[C@@]4(O)[C@@H](C2)N(CC2CC2)CC[C@]314)C[C@@]1(O)[C@H]2Cc3ccc(O)c4c3[C@@]1(CCN2CC1CC1)[C@H]5O4` [Nor-BNI, reference compound] the “KOR Antagonist %Imax ± SEM” value was 102.4 ± 1.2%.
